From patent US20070249501A1 (priority 2004, published 2007)

Assay: Degradation of bromopicrin in soil (HPLC, GC-MS)
Details: 5 mg bromopicrin to 1,000 grams Rehovot sand soil; 0.5, 3 and 7 days

O=[N+]([O-])C(Br)Br
generation as degradation product of bromopicrin in soil: generated immediately and then dissipates to some extent
